Experimental findings from patent US20240016942A1, “STAT DEGRADERS AND USES THEREOF” (Kymera Therapeutics, Inc., priority 2020, published 2024) are described below.

Amino acid sequences for entries named in this document (tags omitted).
UniProt P40763, whole entry: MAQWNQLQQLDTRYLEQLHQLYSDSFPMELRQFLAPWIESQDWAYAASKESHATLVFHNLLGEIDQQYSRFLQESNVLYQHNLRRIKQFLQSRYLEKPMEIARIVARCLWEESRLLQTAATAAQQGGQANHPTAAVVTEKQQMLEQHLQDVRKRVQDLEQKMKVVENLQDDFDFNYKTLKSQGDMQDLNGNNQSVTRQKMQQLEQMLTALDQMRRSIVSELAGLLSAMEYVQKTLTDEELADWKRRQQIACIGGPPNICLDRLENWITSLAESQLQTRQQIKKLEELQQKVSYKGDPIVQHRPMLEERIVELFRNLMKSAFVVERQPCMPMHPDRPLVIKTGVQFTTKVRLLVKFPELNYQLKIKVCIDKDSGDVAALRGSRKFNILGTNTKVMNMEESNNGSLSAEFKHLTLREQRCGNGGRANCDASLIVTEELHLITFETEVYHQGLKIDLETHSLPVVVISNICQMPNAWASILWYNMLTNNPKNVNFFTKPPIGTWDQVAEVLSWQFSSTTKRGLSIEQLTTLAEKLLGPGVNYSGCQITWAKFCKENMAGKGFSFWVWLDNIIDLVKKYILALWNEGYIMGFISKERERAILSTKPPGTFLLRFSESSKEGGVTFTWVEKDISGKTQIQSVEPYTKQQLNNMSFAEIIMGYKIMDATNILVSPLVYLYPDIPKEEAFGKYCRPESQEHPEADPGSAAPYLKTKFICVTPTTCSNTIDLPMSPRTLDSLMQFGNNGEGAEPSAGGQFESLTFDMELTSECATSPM

Broadly, the DC50 is the concentration at which degradation of the target reaches its halfway point.

The target in this assay is STAT3 (Homo sapiens, UniProt P40763). Briefly: STAT3 HiBiT degradation assay (Nano-Glo HiBiT lytic detection) in transfected A549 cells. Conditions: read-out: STAT3 HiBIT A549 degradation 24 h: Average external-Abs DC50, 24 h compound incubation, tested form: ammonium salt. How it is done: Example 1. HiBiT Assay Protocol
Compound preparation and Cell seeding: The transfected A549 cells were harvested from dish into cell culture medium and cell numbers counted. Cells were diluted with culture medium to the desired density and 30 μL of cell suspension (about 2000 cells/well) were added into each well of a 384-well cell culture plate as designated and transferred into 37° C. 5% CO2 incubator for 24 h. Compounds were dissolved to 10 mM stock solution and 12 μL of the stock solution was transferred to a 384 LDV-plate. 3 fold, 10-point dilution was performed by transferring 4 μL compound into 8 μL DMSO using a TECAN (EVO200) liquid handler. 30 μl of diluted compound from compound source plate was transferred into the cell plate as designated by using Echo550 and transferred into 37° C. 5% CO2 incubator for 24 h.
Detection: Plates were removed from incubators and equilibrated at room temperature for 15 minutes. Nano-Glo Hibit Lytic Detection reagent (Promega Cat #N3040) was thawed and equilibrated to room temperature before the experiment. 30 μL of Nano-Glo Hibit Lytic Detection reagent was added into each well to be detected. The plates were held at room temperature for 10 min followed by reading on EnSpire.
Data analysis: The remaining activity was calculated following the formula: Remaining Activity (%)=100%×(Lumsample−LumNC)/(LumPC−LumNC). […]

Consider `Cc1ncsc1-c1ccc([C@H](C)NC(=O)[C@@H]2C[C@@H](O)CN2C(=O)[C@@H](NC(=O)CCCc2cccc(OC[C@H](CCC(N)=O)NC(=O)[C@@H]3CC[C@@H]4CCN(C)C[C@H](NC(=O)c5cc6cc(C(=O)P(=O)(O)O)ccc6[nH]5)C(=O)N43)c2Cl)C(C)(C)C)cc1`, for which the DC50 was below 10 nM.

Regarding `CC(=O)N1CC[C@H]2CC[C@@H](C(=O)N[C@@H](CCC(N)=O)COc3cccc(CCCC(=O)N[C@H](C(=O)N4C[C@H](O)C[C@H]4C(=O)N[C@@H](C)c4ccc(-c5scnc5C)cc4)C(C)(C)C)c3Cl)N2C(=O)[C@@H](NC(=O)c2cc3cc(C(=O)P(=O)(O)O)ccc3s2)C1`, the DC50 is above 1000 nM.
